The values that follow come from EP0339681B1, “Antitumor antibiotic substance” (MEIJI SEIKA KAISHA LTD., priority 1988, dated 1989).

For this test, the system named is P-388 mouse leukemia cells. Kind of test: Cytotoxic effect: 50% growth inhibition of P-388 cells. To be noted: 37°C, 72 hours, 5% CO₂.

In the case of SF2582C sulfate [Compound 4], the IC₅₀ came out at 1000 ng/mL.
